OPERA 2.9 data: logP (octanol/water) values

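The OPERA project collected these measurements from public sources as training and test data for property models. A listed value is a point estimate from one report or more. Method, purity and exact conditions of the single measurements are not given. A value may pool stereoisomers or salt forms, and the file does not say which form was measured. Some upstream entries may be estimates or bounds without being marked so.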

The octanol-water partition coefficient is given as log10; larger values mean a more lipophilic compound.

CCCCCCCCCCCC[n+]1ccccc1.[Br-] [Pyridinium, 1-dodecyl-, bromide (1:1)] has logP 0.44.
C[C@@H](N)CCO [(R)-3-aminobutan-1-ol] has logP -0.7.
C[n+]1ccccc1.[I-] [Pyridinium, 1-methyl-, iodide (1:1)] has logP -3.3.
Nc1nc(Cl)c2ncn(CCC(CO)CO)c2n1 has logP -0.84.
CCCCCCCC[N+](C)(C)C.[I-] [N,N,N-Trimethyloctan-1-aminium iodide] has logP -1.07.
CCOc1ccc(C)cc1/N=N/c1ccc(/N=N/c2cccc(S(=O)(=O)[O-])c2)c2ccccc12.[Na+] [C.I. Acid Orange 116] has logP 1.586.
C[Si](C)(C)O[Si](C)(C)C [Hexamethyldisiloxane] has logP 4.2.
CCC[C@@H]1C[C@@H](C(=O)N[C@@H]([C@H]2O[C@H](SCC)[C@H](O)[C@@H](O)[C@H]2O)[C@@H](C)O)N(CC)C1 [Lincomycin S] has logP 1.91.
CC(=O)[O-].Cn1cnn(C)/c1=N/N=C1C=CC(=[N+](C)Cc2ccccc2)C=C1 has logP 3.05.
C[N+](C)(CCO)CC(O)C[N+](C)(C)CCO.[Cl-].[Cl-] has logP -2.29.
CCCCC(CC)COS(=O)(=O)[O-].[NH4+] (stereo unspecified) [Sulfuric acid, mono(2-ethylhexyl) ester, ammonium salt (1:1)] has logP 3.7.
CC(=O)CC(N)=O [3-Oxobutanamide] has logP -1.4.
C#CCN(CC)CC [2-Propyn-1-amine, N,N-diethyl-] has logP 1.5.
O=[N+]([O-])c1cc(S(=O)(=O)[O-])cc(/N=N/c2c(S(=O)(=O)[O-])cc3cc(S(=O)(=O)[O-])cc(/N=N/c4c([O-])ccc5ccccc45)c3c2O)c1[O-].O=[N+]([O-])c1cc(S(=O)(=O)[O-])cc(/N=N/c2c(S(=O)(=O)[O-])cc3cc(S(=O)(=O)[O-])cc(/N=N/c4c([O-])ccc5ccccc45)c3c2O)c1[O-].[Co+3].[Na+].[Na+].[Na+].[Na+].[Na+].[Na+].[Na+] has logP 2.
O=C=Nc1cccc2c(N=C=O)cccc12 [1,5-Naphthalene diisocyanate] has logP 0.91.
CCN(CC)Cc1cc(Nc2ccnc3cc(Cl)ccc23)ccc1O [Amodiaquine] has logP 3.7.
CC(C)(C)c1nn(-c2cc(C(=O)O)cc(C(=O)O)c2)c(N)c1N=Nc1nnc(SCCSc2nnc(N=Nc3c(C(C)(C)C)nn(-c4cc(C(=O)O)cc(C(=O)O)c4)c3N)s2)s1 has logP -2.7.
Nc1c(I)c(C(=O)Cl)c(I)c(C(=O)Cl)c1I [5-Amino-2,4,6-triiodoisophthaloyl dichloride] has logP 3.7.
OCC(CO)(CO)COCC(CO)(CO)CO [Dipentaerythritol] has logP -1.8.
Nc1cc(N2CCOCC2)nc(N)[n+]1[O-] [2,4-Pyrimidinediamine, 6-(4-morpholinyl)-, 3-oxide] has logP 0.36.
O=S(=O)(O)CCNC1CCCCC1 [Ethanesulfonic acid, 2-(cyclohexylamino)-] has logP -2.2.
CCc1cccc(N)c1 [3-Ethylaniline] has logP 1.88.
CCCCCCC=CCCCCCCCC(=O)O [9-Hexadecenoic acid] has logP 6.58.
CC(N)CN (stereo unspecified) [1,2-Diaminopropane] has logP -1.8.
CN(CCC#N)c1ccc(/C=C/C2=[N+](C)c3ccccc3C2(C)C)cc1.O=P([O-])(O)O has logP -1.744.
CC1=C(C(=O)O)N2C(=O)[C@@H](NC(=O)[C@H](N)c3ccc(O)cc3)[C@H]2SC1 [Cefadroxil] has logP -2.06.
O=C1NCCCN1 [Tetrahydro-2-pyrimidinone] has logP -0.97.
COC(C)(C)CC(C)=O [4-Methoxy-4-methyl-2-pentanone] has logP 0.46.
O=S(=O)([O-])c1ccc(Nc2nc(Nc3ccc(/C=C/c4ccc(Nc5nc(Nc6ccc(S(=O)(=O)[O-])cc6)nc(N6CCOCC6)n5)cc4S(=O)(=O)[O-])c(S(=O)(=O)[O-])c3)nc(N3CCOCC3)n2)cc1.[Na+].[Na+].[Na+].[Na+] has logP -3.39.
NNC(O)=Nc1ccccc1Cl [N-(2-Chlorophenyl)hydrazinecarboximidic acid] has logP 0.45.
O=S(=O)(O)CCN1CCN(CCO)CC1 [(4-(2-Hydroxyethyl)-1-piperazineethanesulfonic acid] has logP -3.85.
O=C([C@@H]1COc2ccccc2O1)N1CC[NH2+]CC1 [4-(2,3-Dihydro-1,4-benzodioxine-2-carbonyl)piperazin-1-ium] has logP 0.103.

2 of these entries, quoted again:

{"smiles": "CCCCCCCCCCCC[n+]1ccccc1.[Br-]", "name": "Pyridinium, 1-dodecyl-, bromide (1:1)", "logP": "0.44"}
{"smiles": "O=S(=O)(O)CCN1CCN(CCO)CC1", "name": "(4-(2-Hydroxyethyl)-1-piperazineethanesulfonic acid", "logP": "-3.85"}

Data: OPERA 2.9 data sets, kmansouri/OPERA on GitHub.